Calls of active or inactive are those of the source. The rule behind the calls is not given here.
Assays:
Format in all cases: cell-based
[1] = biological target: Growth factor receptor-bound protein 7 (Homo sapiens) (UniProt Q14451); assay: Inhibition of GRB7-FAK interaction in human SKBR3 cells assessed as FAK detection in cell lysates at 20 uM preincubated for 1 hr followed by fibronectin stimulation measured after 10 mins by Western blot analysis
[2] = biological target: Growth factor receptor-bound protein 7 (Homo sapiens) (UniProt Q14451); assay: Inhibition of GRB7-SHC interaction in human SKBR3 whole cells at 20 uM preincubated for 1 hr followed by fibronectin stimulation measured after 10 mins by Western blot analysis
[3] = biological target: Growth factor receptor-bound protein 7 (Homo sapiens) (UniProt Q14451); assay: Inhibition of GRB7-HER2 interaction in human SKBR3 cells assessed as HER2 detection in whole cells at 20 uM preincubated for 1 hr followed by fibronectin stimulation measured after 10 mins by Western blot analysis
[4] = biological target: Growth factor receptor-bound protein 7 (Homo sapiens) (UniProt Q14451); assay: Inhibition of GRB7-FAK interaction in human SKBR3 cells assessed as FAK detection in whole cells at 20 uM preincubated for 1 hr followed by fibronectin stimulation measured after 10 mins by Western blot analysis
[5] = biological target: Growth factor receptor-bound protein 7 (Homo sapiens) (UniProt Q14451); assay: Inhibition of GRB7-HER2 interaction in human SKBR3 cells assessed as HER2 detection in cell lysates at 20 uM preincubated for 1 hr followed by fibronectin stimulation measured after 10 mins by Western blot analysis
[6] = biological target: Growth factor receptor-bound protein 7 (Homo sapiens) (UniProt Q14451); assay: Inhibition of GRB7-SHC interaction in human SKBR3 cells assessed as SHC detection in cell lysates at 20 uM preincubated for 1 hr followed by fibronectin stimulation measured after 10 mins by Western blot analysis

Amino acid sequences for entries named in this document (tags omitted).
UniProt Q14451, whole entry: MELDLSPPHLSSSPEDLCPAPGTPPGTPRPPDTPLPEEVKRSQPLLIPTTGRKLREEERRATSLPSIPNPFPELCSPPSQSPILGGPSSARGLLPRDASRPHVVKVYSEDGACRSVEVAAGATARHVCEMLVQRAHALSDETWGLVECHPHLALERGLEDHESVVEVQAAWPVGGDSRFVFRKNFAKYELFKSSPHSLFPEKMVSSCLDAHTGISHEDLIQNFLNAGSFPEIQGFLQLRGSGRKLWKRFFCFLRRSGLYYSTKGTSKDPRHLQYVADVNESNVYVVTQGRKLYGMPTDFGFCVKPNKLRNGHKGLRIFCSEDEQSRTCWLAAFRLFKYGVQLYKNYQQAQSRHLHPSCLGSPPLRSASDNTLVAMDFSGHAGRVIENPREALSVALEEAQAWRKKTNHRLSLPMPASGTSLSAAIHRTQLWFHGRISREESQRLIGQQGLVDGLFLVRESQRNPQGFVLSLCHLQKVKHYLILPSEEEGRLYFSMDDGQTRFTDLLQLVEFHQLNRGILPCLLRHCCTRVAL

- inhibition [1]: Active
- inhibition [2]: Active
- inhibition [3]: Active
- inhibition [4]: Active
- inhibition [5]: Active
- inhibition [6]: Active
Structure (SMILES): CC[C@H](C)[C@H](NC(=O)[C@H](CCCCN)NC(=O)[C@@H](NC(=O)[C@H](CCC(N)=O)NC(=O)[C@H](CCCNC(=N)N)NC(=O)[C@@H]1CSCC(=O)N[C@@H](Cc2c[nH]c3ccccc23)C(=O)N[C@@H](Cc2ccccc2)C(=O)N[C@@H](CCC(=O)O)C(=O)NCC(=O)N[C@@H](Cc2ccc(O)cc2)C(=O)N[C@@H](CC(=O)O)C(=O)N[C@@H](CC(N)=O)C(=O)N[C@@H]([C@@H](C)O)C(=O)N[C@@H](Cc2ccccc2)C(=O)N2CCC[C@H]2C(=O)N1)[C@@H](C)CC)C(=O)N[C@@H](Cc1c[nH]c2ccccc12)C(=O)N[C@@H](Cc1ccccc1)C(=O)N[C@@H](CCC(N)=O)C(=O)N[C@@H](CC(N)=O)C(=O)N[C@@H](CCCNC(=N)N)C(=O)N[C@@H](CCCNC(=N)N)C(=O)N[C@@H](CCSC)C(=O)N[C@@H](CCCCN)C(=O)N[C@@H](Cc1c[nH]c2ccccc12)C(=O)N[C@@H](CCCCN)C(=O)N[C@@H](CCCCN)C(N)=O
